Reference: patent publication US12281084B2, “Acetyl-CoA synthetase 2 (ACSS2) inhibitors and methods using same” (The Wistar Institute, priority 2019, dated 2025)

Tested on: BT474 tumors
Experiment: BT474 tumor xenograft growth in NSG mice
Conditions: 40 mg/kg once daily IP dosing (FIG. 15)
Procedure: For BT474 mouse xenograft studies 5-6 week old female NSG […] were anesthetized and one 17β-estradiol 60 day release pellet (Innovative Research of America Cat. No. SE-121) was injected subcutaneously via 10 gauge precision trochar into the lateral side of the neck between the ear and shoulder. 24 hours later 10^5 BT474 luciferase positive cells in 100 μl PBS:matrigel (growth factor reduced) were injected subcutaneously into the hind limb. For A7C11 and Brpkp110 xenografts, 5×10^5 cells in 100 μl PBS:Matrigel (growth factor reduced Corning Cat. No. 356231) were subcutaneously injected into the hindlimb of 5-6 week old female NSG mice […]. Following tumor establishment in all groups, mice were randomized and treated intraperitoneally (IP) daily with vehicle (10% DMSO, 10% absolute ethanol, 20% solutol, 60% water containing 0.5% Tween20) or 100 mg/kg VY-3-135 as indicated in the figure legend. Tumors were measured thrice weekly via caliper measurement and tumor volume calculated as (L×W^2)/2 (where L is the longer of the 2 measurements). […]
Mice bearing luciferase positive tumors were injected IP with 150 mg/kg sterile filtered D-luciferin potassium salt (Gold Bio Cat. No. LUCK-1G). […] Images were analyzed using Living Image Software (Perkin Elmer). […]

Q: With `CCn1c(C(O)(c2ccc(F)cc2)C(F)(F)F)nc2ccc(C(=O)Nc3cccc(S(C)(=O)=O)c3)cc21` (racemic) as the molecule, how does the BT474 tumor growth read?
A: causes a significant decrease in BT474 tumor growth
